AlphaSeq binding of Ab-14 heavy chain variants to a spike HR2 peptide

Values reported by Li et al. 2023, doi:10.1038/s41467-023-39022-2 (FLAb copy).

Target peptide (SARS-CoV-2 spike, HR2 region): PDVDLGDISGINAS

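The starting antibody came from a phage panning campaign against this peptide. The variants were designed computationally from a first round of random CDR variants and then made and measured. Group labels follow the data file (En: ensemble of fine-tuned language models; HC: hill climbing; Gen: genetic algorithm; Gibbs: Gibbs sampling; a sequence that several methods proposed may carry one label only). The scFvs were displayed on barcoded MATa yeast, the peptide on MATalpha yeast. Mating (16 h, 30 °C) was followed by selection of diploids and sequencing of their barcodes. Scores were corrected for input abundance and mapped to Kd with protein pairs of known affinity run in the same pool. Mating was done six times.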

Parent scFv Ab-14: VH joined to VL by three GGGGS repeats. Changes lie in the heavy chain CDRs alone.
VH: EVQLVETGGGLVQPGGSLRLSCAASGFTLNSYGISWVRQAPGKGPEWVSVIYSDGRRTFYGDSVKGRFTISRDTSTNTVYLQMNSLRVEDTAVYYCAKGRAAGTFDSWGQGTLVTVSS
VL: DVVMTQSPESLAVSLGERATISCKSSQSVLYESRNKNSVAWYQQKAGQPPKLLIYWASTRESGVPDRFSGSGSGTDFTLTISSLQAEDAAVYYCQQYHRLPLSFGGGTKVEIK

The parent's heavy chain CDRs are GFTLNSYGIS, VIYSDGRRTFYGDSVK, GRAAGTFDS; each variant's own CDRs replace them letter for letter. This list holds designs with more than six substitutions. Each Kd is an estimate from the mating assay, the geometric mean of the replicates in which the pair was seen; lower is stronger. A pair that was not seen in any replicate is written "no signal"; this usually means weak binding, but a binder can also be missed. The authors averaged sequences with at least three values out of six and counted those with two or fewer as poor binders. The parent sequence was in this pool as ten entries: three were never detected, three once, and four in most replicates, with averages from 2.2 nM to 240 nM. Nonspecific signal, from three strains lacking the peptide, appeared in 1% of pairings of all heavy chain designs, centred on 120 nM (5% of these signals below 7.0 nM); values are not corrected for it. A sequence measured in both rounds can read differently, since the two assays cover different ranges.

The variant GFDLNEYGIS / VIYADGRRKFYADNVK / GENAGTFNV [En_HC] showed 420 pM (6 of 6 replicates). The variant GFDLQEYGIS / VIYADGKRSMYSNDVK / GEVGLGELL [En_Gibbs] gave no signal (0 of 6 replicates). With GFDLDEYGIS / VIYADGMRSYYADSVK / GTNGGTIEA [En_Gibbs] the result was no signal (0 of 6 replicates). The variant GFSLNEFGIS / VIYADGVRTFYTDNVK / GINVVALVI [En_Gibbs] showed no signal (0 of 6 replicates). With GFDLEEYGIS / VIYADGMRQYAIDNVK / GEISGKGKT [En_Gibbs] the result was no signal (0 of 6 replicates). The variant GFNLNEYGIS / VIYADGRRTFYADSVK / GTNAGTFDV [En_HC] gave 330 pM (6 of 6 replicates). With GDSLNEYGIS / VIYADGKRMVYADSVK / GSESGWFDI [En_Gibbs] the result was no signal (0 of 6 replicates). The variant GFDLNEYGIS / VIYADGMRTFYADDVK / GNQAGTFDM [En_Gen] showed 120 pM (6 of 6 replicates). With GFDLNEYGIS / VIYADGMRTAYSDNVK / GENAGTFDL [En_Gen] the result was 490 pM (6 of 6 replicates).

With GFDLDEYGIS / VIYADGQRTAYADSVK / GENAGTFDL [En_Gen] the result was 1.0 nM (6 of 6 replicates). With GFDVDEYGIS / VIYADGFRTSYTADVK / GSQVGNGLV [En_Gibbs] the result was 260 nM (1 of 6 replicates). The variant GFDLMEYGIS / VIYADGIRSKVTDNVK / GMLTGTAVV [En_Gibbs] gave no signal (0 of 6 replicates). For GFNMDEYGIS / VIYADGRRTVYTNSVK / GVVTWSGKV [En_Gibbs], the assay gave no signal (0 of 6 replicates). For GFDLDEYGIS / VIYADGKRTAYADSVK / GNQAGTFDQ [En_Gen], the assay gave 570 pM (6 of 6 replicates). For GFDLNEYGIS / VIYADGRRTFYSDKVK / GNIGGTFDI [En_HC], the assay gave 140 pM (6 of 6 replicates). The variant GDVLKEYGIS / VIYADGQRTFYVQDVK / GGKAGSFSV [En_Gibbs] gave 240 nM (1 of 6 replicates). The variant GFDLNEYGIS / VIYADGMRTAYTDSVK / GNNAGTFDV [En_Gen] showed 280 pM (6 of 6 replicates). For GFDLNEYGIS / VIYADGVRTAYADDVK / GSNAGTFDV [En_Gen], the assay gave 300 pM (6 of 6 replicates).

The variant GNTLDEYGIS / VIYADGMRKAYINKFK / GMMTGTFDQ [En_Gibbs] showed no signal (0 of 6 replicates). For GFELDEYGIS / VIYADGKRKFYAQTVK / GKTDGMILD [En_Gibbs], the assay gave no signal (0 of 6 replicates). The variant GFDLNEYGIS / VIYADGMRTSYADSVK / GEVAGTFDT [En_Gen] showed 290 pM (6 of 6 replicates). For GFDLEEYGIS / VIYADGSRTAYSDSVK / GNVAGTFDV [En_Gen], the assay gave 250 pM (6 of 6 replicates). With GFDLEDYGIS / VIYADGRRTFYADSVK / GNVAGTFVS [En_HC] the result was 440 pM (6 of 6 replicates). The variant GFDLNEYGIS / VIYADGKRTAYSDSVK / GNQAGTFDV [En_Gen] showed 470 pM (6 of 6 replicates). The variant GFDLNEYGIS / VIYADGKRTFYADSVK / GEVAGTFVQ [En_HC] gave 800 pM (6 of 6 replicates). The variant GFDVDEYGIS / VIYADGFRTSYAADVK / GSQVGNALV [En_Gibbs] gave no signal (0 of 6 replicates). The variant GFDLNEYGIS / VIYADGQRTAYADSVK / GNAAGTFDS [En_HC] gave 810 pM (6 of 6 replicates).

The variant GFDLDEYGIS / VIYADGMRTAYADKVK / GNTAGTFDV [En_Gen] gave 1.2 nM (6 of 6 replicates). With GFDLDEYGIS / VIYADGMRTFYADSVK / GEAAGTFDV [En_HC] the result was 720 pM (6 of 6 replicates). For GFSLDEYGIS / VIYADGLRKQYSNKVK / GLQGFFFDQ [En_Gibbs], the assay gave no signal (0 of 6 replicates). With GFDLNEYGIS / VIYADGKRTFYTDSVK / GGNAGTFDS [En_HC] the result was 980 pM (6 of 6 replicates). With GFDLNEYGIS / VIYADGIRTAYADDVK / GNQAGTFDV [En_Gen] the result was 260 pM (6 of 6 replicates). The variant GFDLNEYGIS / VIYADGSRTFYADSVK / GEVAGTFDL [En_HC] showed 550 pM (6 of 6 replicates). For GFDLDEYGIS / VIYADGMRTFYADSVK / GNIAGTFLL [En_HC], the assay gave 440 pM (6 of 6 replicates). With GFNLGEYGIS / VIYADGTRKGYANSVK / GAVHGFYLD [En_Gibbs] the result was 160 nM (1 of 6 replicates). The variant GYDMEDYGIS / VIYADGSRQAYHDNFK / GELAGTFEM [En_Gibbs] gave no signal (0 of 6 replicates).

With GFDLNEYGIS / VIYADGMRTYYADDVK / GNQAGTFDI [En_Gen] the result was 510 pM (6 of 6 replicates). For GFDLDEYGIS / VIYADGMRTAYADNVK / GNVAGTFDT [En_Gen], the assay gave 860 pM (6 of 6 replicates). With GFDLSEYGIS / VIYADGRRTFYADSVK / GEVAGTFDV [En_HC] the result was 330 pM (6 of 6 replicates). The variant GFDLNEYGIS / VIYADGRRTFYVDSVK / GNVAGTFNV [En_HC] showed 210 pM (6 of 6 replicates). With GFDLNEYGIS / VIYADGMRTAYADSVK / GHVAGTFDL [En_Gen] the result was 320 pM (6 of 6 replicates). With GFDLNEYGIS / VIYADGSRTAYADDVK / GEVAGTFDL [En_Gen] the result was 1.3 nM (6 of 6 replicates). With GHDINEYGIS / VIYADGKRSYYAQDVK / GQNIGQGTT [En_Gibbs] the result was no signal (0 of 6 replicates).

Again, the first 7 entries without any signal:

{"CDR-H1": "GFDLQEYGIS", "CDR-H2": "VIYADGKRSMYSNDVK", "CDR-H3": "GEVGLGELL", "group": "En_Gibbs", "apparent Kd": "no signal", "detected": "0 of 6"}
{"CDR-H1": "GFDLDEYGIS", "CDR-H2": "VIYADGMRSYYADSVK", "CDR-H3": "GTNGGTIEA", "group": "En_Gibbs", "apparent Kd": "no signal", "detected": "0 of 6"}
{"CDR-H1": "GFSLNEFGIS", "CDR-H2": "VIYADGVRTFYTDNVK", "CDR-H3": "GINVVALVI", "group": "En_Gibbs", "apparent Kd": "no signal", "detected": "0 of 6"}
{"CDR-H1": "GFDLEEYGIS", "CDR-H2": "VIYADGMRQYAIDNVK", "CDR-H3": "GEISGKGKT", "group": "En_Gibbs", "apparent Kd": "no signal", "detected": "0 of 6"}
{"CDR-H1": "GDSLNEYGIS", "CDR-H2": "VIYADGKRMVYADSVK", "CDR-H3": "GSESGWFDI", "group": "En_Gibbs", "apparent Kd": "no signal", "detected": "0 of 6"}
{"CDR-H1": "GFDLMEYGIS", "CDR-H2": "VIYADGIRSKVTDNVK", "CDR-H3": "GMLTGTAVV", "group": "En_Gibbs", "apparent Kd": "no signal", "detected": "0 of 6"}
{"CDR-H1": "GFNMDEYGIS", "CDR-H2": "VIYADGRRTVYTNSVK", "CDR-H3": "GVVTWSGKV", "group": "En_Gibbs", "apparent Kd": "no signal", "detected": "0 of 6"}